Literature values as cited in patent publication US12637432B2, “Inhibitors of ACK1/TNK2 tyrosine kinase” (H. LEE MOFFITT CANCER CENTER AND RESEARCH INSTITUTE, INC., priority 2020, dated 2026).

Settings: mouse models; cited from earlier work

COc1cc(Oc2ccccc2)ccc1-c1nc(C2CC(C)(O)C2)n2ccnc(N)c12 (stereo not shown)
oral bioavailability: orally bioavailable
